Patent US5087627A, “Agent for treatment of disorders of the cerebro-neural transmission system” (Santen Pharmaceutical Co., Ltd., priority 1989, dated 1992)

System: PCA - induced amnesia (impairment of memory)
Test: one-trial passive avoidance test in mice, PCA - induced amnesia model
Conditions: PCA 5 mg/kg i.p., 24 h after training, cut off 300 sec

Structure (SMILES) | step-down latency (median) (test compound 1.25 mg/kg p.o.) [s] | step-down latency (median) (test compound 10.0 mg/kg p.o.) [s] | step-down latency (median) (test compound 2.5 mg/kg p.o.)
COc1ccc(CCN2CCN(C(Cc3ccc(F)cc3)c3ccc(F)cc3)CC2)cc1OC (racemic) | 263.6 | 130.1 | –
COc1ccc(CCN2CCN(C(Cc3ccc(F)cc3)c3ccccc3)CC2)cc1OC (racemic) | – | – | 198.2 s
COc1ccc(CCN2CCN(C(Cc3ccccc3)c3ccc(F)cc3)CC2)cc1OC (racemic) | – | – | 199,9 sec.
